scFv variants of Ab-14 (heavy chain) against a SARS-CoV-2 spike peptide

Source: Li et al. 2023 (doi:10.1038/s41467-023-39022-2), MIT Lincoln Laboratory and A-Alpha Bio; data file from the FLAb repository.

Target: peptide PDVDLGDISGINAS, taken from heptad repeat 2 (HR2) of SARS-CoV-2 spike.

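The parent was found by panning a naive human phage display library on the peptide. This is the validation round: designs drawn from the data on random variants, tested in the same kind of assay. Their group label is 14H_Rand (Rand: our label for a block that the file lists under HC and that is probably the random mutants of the ten best first-round binders). The scFvs were displayed on barcoded MATa yeast, the peptide on MATalpha yeast. Pairs that bind mate more often; barcode pairs of the diploids are counted by sequencing. Each replicate has its own calibration line, from reference interactions of the BCL2 family. There are six technical replicates.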

Ab-14 is the parent antibody, in scFv form: VH, then the linker GGGGSGGGGSGGGGS, then VL. The light chain is unchanged in all variants.
VH: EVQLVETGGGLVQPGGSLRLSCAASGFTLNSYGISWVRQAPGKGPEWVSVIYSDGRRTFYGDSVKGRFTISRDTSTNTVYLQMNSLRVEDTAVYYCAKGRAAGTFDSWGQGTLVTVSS
VL: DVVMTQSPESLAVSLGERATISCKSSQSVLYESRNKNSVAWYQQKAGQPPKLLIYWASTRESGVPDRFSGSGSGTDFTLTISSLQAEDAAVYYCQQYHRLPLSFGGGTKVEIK

Changes read parent residue, position, new residue, counted from the first residue of the VH shown. Numbers give log10(Kd / nM), so 0 is 1 nM and 3 is 1 µM. Smaller is tighter. A mean of the replicates is given; it leaves out those without a signal. An entry "ND" has no value in the source: the pair was not observed among the diploids in that replicate. This suggests poor binding but is not conclusive. The range of this assay differs from that of the first round, and the authors advise against merging the two. Of ten entries with the parent sequence, four were seen in most replicates (averages 0.34 to 2.37), three in one and three in none, so single entries are noisy. The authors' rule: three or more of the six replicates give a measured affinity, fewer mean a poor binder. Nonspecific signal, from three strains lacking the peptide, appeared in 1% of pairings of all heavy chain designs, centred on 2.08 (5% of these signals below 0.84); values are not corrected for it. The control count says in how many pairings with the empty strains this scFv gave a signal, with their mean in brackets.

changes,log10 Kd (nM) by replicate,"mean, log10 nM",control signals
F27R G61S A102G G103L,ND ND ND ND ND ND,ND,1/18 (1.54)
S31E G61T S63D R100E A101F D106K,1.38 ND ND ND ND 2.11,1.74,0/18
I34T S53A A102N F105N D106K,ND ND ND ND ND ND,ND,0/18
S31E G61T A101F F105M,1.42 0.95 0.45 0.70 0.68 0.84,0.84,0/18
T58G G61D R100Q A101L,ND ND ND ND ND ND,ND,0/18
G26D S31D F59Q G61I A101I T104C,2.11 ND ND ND ND ND,2.11,0/18
S31Q Y52M G61S T104F,ND ND 1.88 ND ND ND,1.88,0/18
S53A V64R F105N D106K,ND ND ND ND ND ND,ND,0/18
I51V R56S G61S A102G,ND ND ND ND ND ND,ND,0/18
S31Q Y52F R56P G61S T104F,ND ND ND ND ND ND,ND,0/18
G61D R100Q A101L D106W,ND ND ND ND ND ND,ND,0/18
N30M S31D F59Q G61I,ND 0.46 0.89 1.34 1.06 ND,0.94,0/18
S31D G61W G103L D106I,ND ND ND ND ND ND,ND,0/18
N30D I34T I51S F105A D106L S107P,ND ND ND ND ND ND,ND,1/18 (1.94)
S31D V64I G103A F105P D106I,ND ND ND ND ND ND,ND,0/18
G26S T28C L29F S53W R56M T58L G61E T104W D106N,ND ND ND ND ND ND,ND,0/18
S31R G61T R100M A101F,ND 1.90 2.92 1.39 2.91 ND,2.28,0/18
S31Q D54H G61S T104F,ND ND ND ND ND ND,ND,0/18
S31E R57I G61T A101F D106F,ND ND ND ND ND ND,ND,0/18
L29I S31D F59Q G61I,2.19 ND 1.77 1.76 0.95 1.79,1.69,1/18 (1.31)
N30R T58N G61S A102G D106C,ND ND ND ND ND ND,ND,0/18
N30D R57A F105A D106L,ND ND ND ND ND ND,ND,0/18
T28L S31Q I34A G61S T104F,ND ND ND ND ND ND,ND,0/18
S31D S35M S53Q F59Q G61I S63K,ND ND ND ND ND ND,ND,0/18
T28R L29F N30S S31E S107Q,2.04 1.15 1.06 ND 1.80 1.27,1.46,0/18
F27V S31E G103V S107Q,ND 1.29 ND ND ND ND,1.29,1/18 (2.20)
S31D G33C I51D V64D G103L D106I,ND ND ND ND ND ND,ND,0/18
S53A S63Q F105N D106K,ND ND ND ND ND ND,ND,0/18
S31Q T58D G61S T104F,ND ND ND ND ND ND,ND,0/18
S31E G61S R100Q A101P F105I,ND ND ND ND ND ND,ND,1/18 (1.94)
S31D G33W F59Q G61I,ND ND ND ND ND ND,ND,0/18
S31E G61V D62C G103V S107Q,ND ND ND ND ND ND,ND,0/18
S31Q S53P G61S T104F,ND ND ND ND ND ND,ND,0/18
S31E G61T S63I A101F F105A,ND ND ND ND 1.49 0.43,0.96,0/18
T28D V64L T104W D106N,ND ND ND ND ND ND,ND,1/18 (1.93)
S31E G61P A101F,1.36 1.25 1.47 1.02 0.59 1.36,1.17,0/18
N30D F105R D106L,ND ND ND ND ND ND,ND,0/18
S31R G61S D62Q S63A A101S T104F,ND ND ND 2.08 ND ND,2.08,0/18
S31Q S35D I51D G61S T104F,ND ND ND ND ND ND,ND,0/18
S31E I51L F59L R100T G103V S107Q,ND ND ND ND ND ND,ND,0/18

Excerpt, the final 4 entries:

changes,log10 Kd (nM) by replicate,"mean, log10 nM",control signals
N30D F105R D106L,ND ND ND ND ND ND,ND,0/18
S31R G61S D62Q S63A A101S T104F,ND ND ND 2.08 ND ND,2.08,0/18
S31Q S35D I51D G61S T104F,ND ND ND ND ND ND,ND,0/18
S31E I51L F59L R100T G103V S107Q,ND ND ND ND ND ND,ND,0/18